Experimental data reported in ChEMBL document CHEMBL5154779, “Exploration of novel phthalazinone derivatives as potential efflux transporter inhibitors for reversing multidrug resistance and improving the oral absorption of paclitaxel” (Eur J Med Chem, 2022).

What was measured:
Type in all cases: cell-based
Settings in all cases: Canis lupus familiaris
MDCK-II-BCRP [1] = assay: Reversal of BCRP-mediated multidrug resistance in dog MDCK-II-BCRP cells assessed as fold reduction in mitoxantrone IC50 at 1.25 uM measured after 48 hrs by MTT assay relative to mitoxantrone IC50 alone
MDCK-II-BCRP [2] = assay: Reversal of BCRP-mediated multidrug resistance in dog MDCK-II-BCRP cells assessed as fold reduction in mitoxantrone IC50 at 20 uM measured after 48 hrs by MTT assay relative to mitoxantrone IC50 alone
MDCK-II-BCRP [3] = assay: Reversal of BCRP-mediated multidrug resistance in dog MDCK-II-BCRP cells assessed as fold reduction in mitoxantrone IC50 at 0.15 uM measured after 48 hrs by MTT assay relative to mitoxantrone IC50 alone
MDCK-II-BCRP [4] = assay: Reversal of BCRP-mediated multidrug resistance in dog MDCK-II-BCRP cells assessed as fold reduction in mitoxantrone IC50 at 0.05 uM measured after 48 hrs by MTT assay relative to mitoxantrone IC50 alone
MDCK-II-BCRP [5] = assay: Reversal of BCRP-mediated multidrug resistance in dog MDCK-II-BCRP cells assessed as fold reduction in mitoxantrone IC50 at 0.01 uM measured after 48 hrs by MTT assay relative to mitoxantrone IC50 alone
MDCK-II-BCRP [6] = assay: Reversal of BCRP-mediated multidrug resistance in dog MDCK-II-BCRP cells assessed as fold reduction in mitoxantrone IC50 at 0.4 uM measured after 48 hrs by MTT assay relative to mitoxantrone IC50 alone
MDCK-II-BCRP [7] = assay: Reversal of BCRP-mediated multidrug resistance in dog MDCK-II-BCRP cells assessed as fold reduction in mitoxantrone IC50 at 0.2 uM measured after 48 hrs by MTT assay relative to mitoxantrone IC50 alone
MDCK-II-BCRP [8] = assay: Reversal of BCRP-mediated multidrug resistance in dog MDCK-II-BCRP cells assessed as fold reduction in mitoxantrone IC50 at 0.1 uM measured after 48 hrs by MTT assay relative to mitoxantrone IC50 alone

O=C(Nc1ccc(CCN2CCOCC2)cc1)c1nn(-c2ccc(Cl)cc2)c(=O)c2ccccc12 showed a Ratio IC50 (MDCK-II-BCRP [1]) of 15.1, a Ratio IC50 (MDCK-II-BCRP [2]) of 46.3 and a Ratio IC50 (MDCK-II-BCRP [3]) of 9.58. The Ratio IC50 (MDCK-II-BCRP [4]) was 136, the Ratio IC50 (MDCK-II-BCRP [5]) was 1.13 and the Ratio IC50 (MDCK-II-BCRP [6]) was 15.7. The Ratio IC50 (MDCK-II-BCRP [7]) was 12 and the Ratio IC50 (MDCK-II-BCRP [8]) was 2.8.
